Results reported in patent US20230302022A1, “PREVENTING OR MITIGATING CHEMOTHERAPY INDUCED ALOPECIA USING VITAMIN D” (priority 2016, published 2023).

Test system: Gottingen Minipigs
Assay: 4-week dermal toxicity study in Gottingen Minipigs
Settings: minipig NOAEL dose vs initial clinical dose (5 μg/mL × 1 mL × 2×/day, 60 kg)
Experimental: Observations for morbidity, mortality, injury, and the availability of food and water were conducted twice daily for all animals. Clinical observations were conducted weekly.

C=C1/C(=C\C=C2/CCC[C@]3(C)[C@@H]([C@H](C)CCCC(C)(C)O)CC[C@@H]23)C[C@@H](O)C[C@@H]1O [Calcitriol, (5Z,7E)-9,10-secocholesta-5,7.10(19Hriene-1 a,33.25-triol]
margin of safety (MOS): 20
